Experimental data published in article PMC4254048.

How the values were obtained:
[1] = target: PARKIN with K161, R163 or K211 individually mutated (Figure S5F)
[2] = target: PARKIN (unphosphorylated, WT) (UniProt O60260); test: BLI
[3] = target: PARKIN (unphosphorylated, WT) (UniProt O60260); test: SEC-MALS
[4] = target: PARKIN (unphosphorylated, WT) (UniProt O60260); test: ITC

- Kd [1]: 140 to 158 nM
- Kd [2]: 411 nM
- stoichiometry N [3]: 1
- Kd [4]: 366 nM
Substance: p-UB (PINK1-phosphorylated UB) (from UniProt P0CG48 1-76) (natural protein)
